Experiments:
SLF1^tBRCT_K56A = target: T1, SLF1^tBRCT_K56A (human, UniProt Q9BQI6 6-208, K56A); experiment: fluorescence polarisation; 20 nM 6-FAM-RAD18(442p,444p)^peptide with rising SLF1^tBRCT or SLF1^tBRCT_K56A; 20 mM Tris pH 8.0, 150 mM NaCl, 5% glycerol; room temperature 30 mins; one-site specific binding model; conditions: both partners purified
T1 construct: SLF1, human, tandem BRCT domain, residues 6-208, K56A; not shown: His-tag, N-terminal, cleaved
T1 sequence (looked up): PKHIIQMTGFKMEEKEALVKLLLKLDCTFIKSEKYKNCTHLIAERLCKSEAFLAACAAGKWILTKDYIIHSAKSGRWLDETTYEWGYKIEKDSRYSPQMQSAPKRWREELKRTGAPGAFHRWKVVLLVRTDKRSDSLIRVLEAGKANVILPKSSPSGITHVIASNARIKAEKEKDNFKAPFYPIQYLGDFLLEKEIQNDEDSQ

[1] = target: T2, SLF1^tBRCT (tandem BRCT domain of SLF1, residues 6-208) (human, UniProt Q9BQI6 6-208); experiment: as above; conditions: both partners purified
T2 construct: SLF1 (SMC5-SMC6 complex localization factor 1), human, tandem BRCT domain, residues 6-208; pHAT4 construct; also called wild-type SLF1^tBRCT; not shown: His-tag, N-terminal, cleaved
T2 sequence (looked up): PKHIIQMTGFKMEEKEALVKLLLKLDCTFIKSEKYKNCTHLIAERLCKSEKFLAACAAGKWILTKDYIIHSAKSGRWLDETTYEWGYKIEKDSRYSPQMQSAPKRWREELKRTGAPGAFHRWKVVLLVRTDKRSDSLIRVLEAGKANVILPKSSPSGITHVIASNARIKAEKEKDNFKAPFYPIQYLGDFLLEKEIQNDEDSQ

B1: 6-FAM-RAD18(442p,444p)^peptide (6-FAM-S(pS)S(pS)DI) (peptide)
peptide: SSSSDI
modifications: 6-FAM (6-carboxyfluorescein) on the N-terminus; phosphoserine at 442 and 444; C-terminal amidation
notes: RAD18, human, residues S441 to I446; the methods say that all RAD18 peptides are N-terminally acetylated; this one is printed with 6-FAM at the N-terminus; also called 6-FAM labelled S(pS)S(pS)DI peptide; 6-FAM-labelled RAD18 peptide; source: synthetic peptide (Biomatik)
Kd (SLF1^tBRCT_K56A): 6.63 µM
Kd [1]: ~1060 nM

Reference: PMC11551741 (Nucleic Acids Research, 2024)
